In patent US20110160252A1, “PHARMACEUTICAL COMPOSITIONS FOR TREATMENT OR PREVENTION OF HBV INFECTION” (priority 2008, published 2011):

Test system: HBV (genotype C_AT; wild-type strain)
Experiment: Serum HBV DNA in chimeric mice having human liver infected with genotype C HBV (Example 2)
Format: in vivo, Hepatitis B virus
Conditions: after 14 days, PEG-IFN 30 μg/kg, compound of formula (III) 10 mg/kg (FIG. 2)
Protocol: The inhibitory activity of the compound represented by formula (III) was assessed using chimeric mice (purchased from PhoenixBio Co., Ltd.) having human liver infected with wild-type HBV strain (genotype C_AT; wild-type strain).
Specifically, the compound represented by formula (III) and/or PEG-IFN (Chugai Pharmaceutical Co.) were administered by intravenous or subcutaneous injection to mice infected with genotype C HBV (C_JPNAT; reference: Sugiyama) according to Table 1. Then, blood was collected from the mice.
In Table 1, circle represents the timing of blood collection; 30 indicates administration of PEG-IFN at 30 μg/kg; 10+30 indicates administration of the compound represented by formula (III) at 10 mg/kg in combination with PEG-IFN at 30
Next, serum HBV was purified by the same method as described in Example 1, and HBV was quantified by measuring HBV-DNA using real-time PCR method. The sequences of primers HBSF2: 5′-CTTCATCCTGCTGCTATGCCT-3′[nt 406-426] […] (SEQ ID NO: 5), and the sequence of TaqMan probe HBSP2 (nt 461-488) (5′-ATGTTGCCCGTTTGTCCTCTAATTCCA-3′ (SEQ ID NO: 6)) were the same as those described in the reference (Abe A, Inoue K, Tanaka T, Kato J, Kajiyama N, Kawaguchi R, Tanaka S, et al. Quantitation of hepatitis B virus genomic DNA by real-time detection PCR. J Clin Microbiol (1999) 37: 2899-2903).

PEG-IFN: PEG-IFN used in Examples 2 to 5 herein refers to Peginterferon α-2a (Pegasys)
decrease of serum level of HBV DNA: about 1.4 Log
